From patent US20050002900A1, “Method of treating estrogen responsive breast cancer” (priority 2001, published 2005)

Tests used:
[1] = system: aromatase mRNA; assay: RT-PCR of aromatase mRNA in cultured adipocytes; format: cell-based, human; conditions: interferon alone, endogenous expression, FIG. 3
Method: (§1) Human subcutaneous cultured adipocytes and preadipocytes, catalog nos. SP-1012, SP-1024, SP-1096, SP-75, or SP-25 were purchased from Zen-Bio, Inc. (Research Triangle Park, N.C.) and cultured according to the manufacturer's instructions.
Adipocyte cultures were treated with IL-1-β, IFN-γ, TNF-α, and combinations of IL-1-β and IFN-γ and TNF-α and IFN-γ. Consequently, total RNA from cultured adipocytes was isolated using conventional methods. The reverse transcriptase polymerase chain reaction (RT-PCR) was performed using aromatase specific primers. The amplified aromatase cDNA fragments produced by RT-PCR were separated on an agarose gel. As shown in the FIG. 2, IL-1β and TNF-α alone induced transcription of aromatase mRNA compared to untreated control. However, the administration of IFN-γ inhibits the transcription of aromatase mRNA when given together with IL-1β or TNFα. […] The estradiol production by the cells is shown as pikograms/ml (pg/ml) below the photograph of the gel showing the aromatase mRNA levels.
(§2) The isolated human adipocytes were also treated with different interferon family members: IFN-α, -β, and -γ.

[2] = system: human adipocytes; assay: Estradiol production by cultured human adipocytes (Active Estradiol EIA kit); format: cell-based; conditions: interferon alone, FIG. 3
Method: as §1
The culture medium of the preadipocytes was supplemented with 0.1 μg/ml IFN-γ and increasing concentrations of either TNF-α or TNF-β as shown in FIG. 1. Estradiol concentrations were measured using the Active™ Estradiol EIA kit according to the manufacturer's instructions (catalog no. DSL-10-4300, Diagnostic Systems Laboratories, Inc., Webster, Tex.).
as §2

## IFN-β: interferon family member
[1]
  expression of aromatase mRNA in human adipocytes: significantly increased
[2]
  estradiol production increase upon interferon induction: about 16 fold
